The source of these data is US11015179B2, “Peptide having anti-viral effect and composition containing same” (priority 2015, dated 2021).

Experiment [1] concerns macrophages. The experiment can be described thus: Differentiation of macrophages (FACS) in whole HBV W4P genome-transgenic mice. The experiment is classed as in vivo. The conditions noted are these: eight weeks; PEP1 50 μg/kg, 3TC 500 μg/kg; vs PBS. On the procedure: Therefore, to observe if the PEP1 peptide is able to differentiate macrophages to M1, eight weeks after PBS, 50 μg/kg of the PEP1 peptide and 500 μg/kg of 3TC were injected into the caudal vein of each of transgenic mice prepared by injecting the whole HBV W4P variant genome twice a week, the whole blood was collected from the mouse and a kidney of the mouse was extracted, immune cells were isolated and stained with a macrophage marker (F4/80) and M1 marker MHCII through an extracellular cell surface staining method. Afterward, FACS analysis was carried out.

Experiment [2] relates to INFγ. In words: INFγ activity of immune cells (FACS) in whole HBV W4P genome-transgenic mice. The experiment is classed as in vivo. To be noted: 8 weeks; PEP1 50 μg/kg, 3TC 500 μg/kg; HBsAg stimulation 72 hours.
The subject of experiment [3] is HBV. The experiment can be described thus: Antiviral effect with HSP90 blockage in whole HBV wild-type genome-transfected HepG2 cell line (real-time quantitative PCR). The experiment is classed as cell-based, hepatitis B virus. To be noted: HepG2, PEP1 5 μM, 24 hours. On the procedure:
PEP1 has been known to pass through a cell membrane from the outside to the inside of the cells in a shuttle method via HSP90. To confirm if the antiviral effect is reduced in cells by blocking the HSP90 activity based on such a mechanism, in this research, a HepG2 cell line was transiently transfected with the whole HBV wild-type genome, treated with anti-GAPDH, anti-HSP (1 ug/ml, blockage of HSP90 activity) and 17-AAG (1 μM) for 1 hour, ant then with PBS (0.5%), entecavir (ETV, 30 nM) and PEP1 (5 μM) for 24 hours. Subsequently, the supernatant was collected and treated with PEG6000 to precipitate the virus, and viral DNA was extracted and subjected to real-time quantitative PCR to observe an antiviral effect. All experiments are independently performed in triplicate, and a statistical significance test was performed using one-way ANOVA through the Tukey's Multiple Comparison Test. ** p<0.05 versus PBS, and ## p<0.05 versus None.

In experiment [4] the test system is HBV. The experiment can be described thus: Virion production (real-time PCR of HBV DNA) in W4P-transfected Huh7 cell line. To be noted: Huh7, 10 μM, 48 hours. The experiment is classed as cell-based, hepatitis B virus. How it is done:
To observe the potential for virion proliferation of whole HBV containing W4P, virion DNA was extracted from the entire supernatant while the medium was changed every 24 hours by the above-described method, and subjected to real-time quantitative PCR using a Quantitech SYBR Green Master-Mix kit (Qiagen). The entire supernatant was centrifuged using an ultracentrifuge equipped with an SW28 swing rotor at 20,000 rpm for 2 hours to precipitate the virus, and the precipitated viral pellets were suspended with 200 μl of sterilized DW. […] Real-time PCR was performed at 40 cycles of 5 min at 95° C., 15 sec at 94° C., and 15 sec at 60° C. using the Exicycler™ 96 Real-Time Quantitative Thermal Block System (Bioneer Co., Korea), and the temperature was increased from 53° C. to 90° C. by modulating to 0 sec at 95° C., 30 sec at 53° C. and modulating by 0.1° C. per second to analyze a melting curve.
To observe the virion production in the supernatant after the inhibition of HBsAg secretion by the PEP1 peptide was observed, virions were collected from the supernatant obtained by the above-described method using PEG 6000, and HBV DNA was obtained using a virus DNA prep kit (Intron, Korea), and then quantified by real-time PCR.

Experiment [5] deals with HBV. In words: HBsAg ELISA in whole HBV W4P genome-transfected Huh7.5 cell line. The experiment is classed as cell-based, hepatitis B virus. To be noted: Huh7.5, 10 μM, 48 hours. How it is done: To observe virion production of entire HBV containing W4P by PEP1, 2×10^6 Huh7 cells were seeded into a 100 mm dish, and normal total HVC and HBV containing W4P were co-transiently transfected with a pCMV-β-gal vector including β-galactosidase, and incubated for 3 days. While changing the medium every 24 hours, the supernatant (sup) was collected. To analyze the supernatant, ELISA was performed according to experimental instructions using a generalized Bioelisa HBsAg color ELISA kit (BIOKIT S.A., Spain) and an HBeAg ELISA kit (BIOKIT S.A., Spain) that can detect a Hepatitis B surface antigen (HBsAg) and a Hepatitis B envelope antigen (HBeAg). 100 μl of each of the collected supernatants was added to each well, and reacted at 37° C. for 1 hour. 300 μl of a washing solution to each well for washing three times. 300 μl of a washing solution was added to the diluted conjugate solution for washing three times. 20 μl/ml of TMB was added to a substrate solution, and then 100 μl of the mixture was added to each well of a 96-well plate to allow a reaction for 30 minutes while light was blocked at room temperature. 100 μl of a stop solution was added to stop the reaction. The absorbance was read using an ELISA reader (Beckman, USA) at 450 nm. […]
Background: In an ELISA, binding on a coated surface is turned into a signal by an enzyme label.

Take `CC[C@H](C)[C@H](NC(=O)[C@H](Cc1ccccc1)NC(=O)[C@H](CCCNC(=N)N)NC(=O)[C@H](CC(C)C)NC(=O)[C@H](CCCNC(=N)N)NC(=O)[C@H](CO)NC(=O)[C@@H](NC(=O)[C@H](CC(C)C)NC(=O)[C@H](CC(C)C)NC(=O)[C@H](C)NC(=O)[C@@H]1CCCN1C(=O)[C@H](CCCNC(=N)N)NC(=O)[C@H](C)NC(=O)[C@@H](N)CCC(=O)O)[C@@H](C)O)C(=O)N1CCC[C@H]1C(=O)N[C@@H](CCCCN)C(=O)O` [PEP1, EARPALLTSRLRFIPK]: in experiment [1], the “Distribution of macrophages among myeloid-derived cells” value is “significantly increased” and the “Number of cells differentiated to M1” value is recorded as “increased, compared to the PBS group, but not significantly”. Besides, the “INFγ activity of CD4, CD8 and NK1.1 cells” value in experiment [2] is “did not exhibit INFγ activity”. In addition, the “Antiviral effect (viral DNA in supernatant), no blocking or GAPDH-blocked group” value in experiment [3] was “statistically more significantly shown”. In addition, the “Antiviral effect in group treated with HSP90 (anti-HSP) and 17-AAG” value in experiment [3] (17-AAG 1 μM) is “no statistically significant antiviral effect”. The “Virions produced in the supernatant” value in experiment [4] is listed as “inhibitory effect”. The “Intracellular and extracellular HBsAg levels” value in experiment [5] is “neither an intracellular nor extracellular inhibitory effect was observed”.
